Values of other authors in patent US20040249133A1, “Use of lipopeptides or lipoproteins for treating lung infections and lung tumours” (priority 2000, published 2004).

Tested on: tumour metastases in the lungs
Conditions: inhalational administration; cited from earlier work

## interleukin-2: lymphokine interleukin-2, inhalational administration
  side-effects: low level of side-effects
  tumour metastases in the lungs: reduction of tumour metastases in the lungs
